This note sets out measurements from patent publication US11267868.

The target in the test is human IgE. In words: SPR; fit kinetic; antibody as IgG; antigen as Fc_fusion_or_other_dimer; on the surface: target; avidity possible.

As to Xolair, the Kd runs as follows: (pH 5.8, 3 μmol/l CaCl2 [other variable at pH 5.8: calcium (3 μM here against […] at pH 7.4)]) 13 nM; (pH 5.8, […] CaCl2) 9.9 nM; (pH 7.4, […] CaCl2) 4.4 nM.
